We go through one molecule from US8252899B2, “Methods and compositions for obtaining high-resolution crystals of membrane proteins” (The Scripps Research Institute, priority 2007, dated 2012).

The test system of the experiment is β2AR-T4L. Put plainly: Competition binding against 0.5 nM [3H]DHA, Sf9 membranes, β2AR-T4L. On the set-up: species or system human.

Turning to `COc1ccc(CC(C)NCC(O)c2ccc(O)c(NC=O)c2)cc1` (stereo not shown), the “affinity for β2AR-T4L relative to wild-type β2AR (competition binding)” value is “two to three-fold higher”.
